Values of other authors in publication PMC11284792, “Backbone-Determined Antiarrhythmic Structure–Activity Relationships for a Mirror Image, Oligomeric Depsipeptide Natural Product” (Journal of Medicinal Chemistry, 2024).

Settings: companion study; cited from earlier work

(3R,6S,9R,12S,15R,18S,21R,24S)-3,4,9,10,15,16,19,21,22-nonamethyl-6,12,18,24-tetrapentyl-1,7,13-trioxa-4,10,16,19,22-pentaazacyclotetracosan-2,5,8,11,14,17,20,23-octaone [3.1]
Passive permeability measured by PAMPA (in words): favorable passive permeability

(3R,6S,9R,12S,15R,18S,21R,24S)-3,4,9,10,15,16,21,22-octamethyl-6,12,18,24-tetrapentyl-1,7,13-trioxa-4,10,16,19,22-pentaazacyclotetracosan-2,5,8,11,14,17,20,23-octaone [2.1]
Passive permeability measured by PAMPA (in words): favorable passive permeability
